Source: patent US20240417426A1
Where two headings read alike, the source gives them in different places.

Experiments:
[1] = target: Im7 immobilization unit (genetically modified colicin immunity protein 7 flanked by Cys-containing coiled-coil segments), covalently coupled to Sulfo-Link agarose beads
[2] = target: Im7 immobilization unit (genetically modified colicin immunity protein 7 flanked by Cys-containing coiled-coil segments), covalently coupled to Sulfo-Link agarose beads; remark: listed apart in the source
[3] = target: Im7 immobilization unit (genetically modified colicin immunity protein 7 flanked by Cys-containing coiled-coil segments), covalently coupled to Sulfo-Link agarose beads; remark: listed apart in the source

## human calnexin (CNX) with PSC-cleavable C-terminal CL7-tag (from UniProt P27824 21-592)
[1]
  EL Amount: 39 mg
[2]
  FT Loss (%): 30%
[3]
  FT Loss (%): 25%
